Data: patent US7276339B2 (H. Lundbeck A/S, priority 1998, dated 2007)

Sequences of proteins named here, by UniProt entry; tags and fusion partners are left off. A change or cut given only in a name is not applied to a line headed by its entry. Residues count along the entry.
UniProt Q9GZQ6: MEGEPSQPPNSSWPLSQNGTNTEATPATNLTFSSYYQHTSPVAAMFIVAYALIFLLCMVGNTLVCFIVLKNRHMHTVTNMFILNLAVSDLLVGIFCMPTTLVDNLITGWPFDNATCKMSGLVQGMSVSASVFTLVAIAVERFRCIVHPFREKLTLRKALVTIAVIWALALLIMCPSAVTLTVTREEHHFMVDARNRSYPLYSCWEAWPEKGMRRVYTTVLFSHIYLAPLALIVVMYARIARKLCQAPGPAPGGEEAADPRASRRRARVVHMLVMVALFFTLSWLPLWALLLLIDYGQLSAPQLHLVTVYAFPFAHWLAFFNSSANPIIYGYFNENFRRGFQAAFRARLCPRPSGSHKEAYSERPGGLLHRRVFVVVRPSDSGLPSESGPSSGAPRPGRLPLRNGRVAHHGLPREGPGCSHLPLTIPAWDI
UniProt Q9Y5X5, 103-522: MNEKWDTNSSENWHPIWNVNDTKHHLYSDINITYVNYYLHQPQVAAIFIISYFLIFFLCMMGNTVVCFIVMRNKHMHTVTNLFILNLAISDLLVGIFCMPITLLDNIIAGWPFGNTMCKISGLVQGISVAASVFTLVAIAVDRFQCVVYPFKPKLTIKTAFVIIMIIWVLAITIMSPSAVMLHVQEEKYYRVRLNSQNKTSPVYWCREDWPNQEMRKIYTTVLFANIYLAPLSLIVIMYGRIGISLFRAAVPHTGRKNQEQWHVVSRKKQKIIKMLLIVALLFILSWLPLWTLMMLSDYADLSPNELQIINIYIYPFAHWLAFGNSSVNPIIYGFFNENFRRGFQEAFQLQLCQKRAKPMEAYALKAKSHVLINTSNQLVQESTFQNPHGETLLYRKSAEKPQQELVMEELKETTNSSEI
UniProt Q9EQD2: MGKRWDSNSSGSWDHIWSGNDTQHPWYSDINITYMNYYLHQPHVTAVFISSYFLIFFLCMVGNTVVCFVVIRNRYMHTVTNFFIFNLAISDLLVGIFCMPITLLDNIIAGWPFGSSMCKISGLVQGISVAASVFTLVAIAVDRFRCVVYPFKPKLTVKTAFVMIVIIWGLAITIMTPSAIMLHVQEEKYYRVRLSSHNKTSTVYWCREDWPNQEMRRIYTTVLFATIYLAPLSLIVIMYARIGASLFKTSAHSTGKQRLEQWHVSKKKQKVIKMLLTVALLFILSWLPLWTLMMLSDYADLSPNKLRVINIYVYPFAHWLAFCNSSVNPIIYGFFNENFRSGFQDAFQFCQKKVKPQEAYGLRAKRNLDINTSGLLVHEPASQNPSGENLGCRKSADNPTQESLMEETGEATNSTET
UniProt Q9EP86: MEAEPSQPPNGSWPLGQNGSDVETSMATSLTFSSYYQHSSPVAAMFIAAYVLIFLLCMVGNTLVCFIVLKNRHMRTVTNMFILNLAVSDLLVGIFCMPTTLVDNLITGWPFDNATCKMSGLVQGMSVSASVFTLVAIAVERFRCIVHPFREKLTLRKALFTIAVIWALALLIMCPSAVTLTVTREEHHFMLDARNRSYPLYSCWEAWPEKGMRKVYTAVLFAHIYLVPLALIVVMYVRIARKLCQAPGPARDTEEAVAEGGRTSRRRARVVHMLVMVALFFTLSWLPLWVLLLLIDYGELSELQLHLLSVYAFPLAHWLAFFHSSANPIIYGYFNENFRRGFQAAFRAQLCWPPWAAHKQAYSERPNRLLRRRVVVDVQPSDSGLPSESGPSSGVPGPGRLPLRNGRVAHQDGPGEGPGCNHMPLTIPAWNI

Columns and labels:
[1] = target: rat spinal cord membrane receptor; assay: [125I]D-Tyr-NPFF radioligand binding, rat spinal cord membranes; details: competition of [125I]D-Tyr-NPFF binding; * = differs from NPFF1
Description: The binding profile of rat NPFF1 was compared to that of rat spinal cord membranes. […] (See * Table 2).

human NPFF1 receptor [2] = target: T1, human NPFF1 receptor (Homo sapiens, UniProt Q9GZQ6); assay: [125I]D-Tyr-NPFF radioligand binding, HEK-293 cells expressing human NPFF1; details: Table 3, read-out: pKi ± SEM, human NPFF1 (converted)
T1 construct: To obtain a full-length hNPFF1 construct in the correct orientation; expressed in transfected cells; host or cells: HEK-293 (transient)
Description: (§1) Transfected cells from culture flasks are scraped into 5 ml of 20 mM Tris-HCl, 5 mM EDTA, pH 7.5, and lysed by sonication. The cell lysates are centrifuged at 1000 rpm for 5 min. at 4° C., and the supernatant is centrifuged at 30,000×g for 20 min. at 4° C. The pellet is suspended in binding buffer (50 mM Tris-HCl, 60 mM NaCl, 1 mM MgCl, 33 μM EDTA, 33 μM EGTA at pH 7.4 supplemented with 0.2% BSA, 2 μg/ml aprotinin, and 20 μM bestatin). Optimal membrane suspension dilutions, defined as the protein concentration required to bind less than 10% of the added radioligand, are added to 96-well polpropylene microtiter plates containing ^3H-labeled compound, unlabeled compounds, and binding buffer to a final volume of 250 μl. […] The binding affinities of the different compounds are determined in equilibrium competition binding assays, using [^125I]-labeled compound in the presence of ten to twelve different concentrations of the displacing ligands. […] Radioactivity may be measured by scintillation counting and data are analyzed by a computerized non-linear regression program. Non-specific binding is defined as the amount of radioactivity remaining after incubation of membrane protein in the presence of 1 μM final concentration […]. Protein concentration may be measured by the Bradford method using Bio-Rad Reagent, with bovine serum albumin as a standard. […]

human NPFF2 receptor [3] = target: T2, human NPFF2 receptor (Homo sapiens, UniProt Q9Y5X5); assay: [125I]D-Tyr-NPFF radioligand binding, HEK-293 cells expressing human NPFF2; details: Table 3, read-out: pKi ± SEM, human NPFF2 (converted)
T2 construct: BO89, was determined to be a full length clone with no point mutations; expressed in transfected cells; host or cells: HEK-293 (transient)
Description: as §1

rat NPFF2 receptor = target: T3, rat NPFF2 receptor (Rattus norvegicus, UniProt Q9EQD2); assay: [125I]D-Tyr-NPFF radioligand binding, cloned rat NPFF2; details: Table 3, title HEK-293 cells (text: Cos-7), read-out: pKi ± SEM, rat NPFF2 (converted)
T3 construct: The full-length rat NPFF2 clone was amplified from rat spinal cord cDNA; expressed in transfected cells; host or cells: COS-7
Description: as §1

NPFF2 (NPFF-like) = target: T4, NPFF2 (NPFF-like) (Homo sapiens, UniProt Q9Y5X5); assay: Voltage-clamp electrophysiology, Xenopus oocytes injected with NPFF-like (NPFF2) and chimeric Gαq/z RNA; format: cell-based; details: 1 μM, holding potential −80 mV
T4 construct: linearized plasmids or PCR products containing the complete coding region of the genes; expressed in transfected cells; host or cells: Xenopus laevis oocytes injected with mRNA from ligation PCR products or linearized BO89
Description: For expression of NPFF2, mRNA transcripts were generated as described for NPFF1, using PCR products from ligation reactions or linearized DNA from BO89 as DNA templates. Oocytes were injected with 5-50 ng NPFF2 mRNA and incubated as previously described.
(§2) Oocytes were harvested from Xenopus laevis and injected with mRNA transcripts as previously described (Quick and Lester, 1994; Smith et al., 1997). […] Three to eight hours prior to recording, oocytes were injected with 500 pg Gαq/z mRNA in order to observe coupling to Ca^++ activated Cl^− currents. Dual electrode voltage clamp (Axon Instruments Inc.) was performed using 3 M KCl-filled glass microelectrodes having resistances of 1-2 Mohm. Unless otherwise specified, oocytes were voltage clamped at a holding potential of −80 mV. During recordings, oocytes were bathed in continuously flowing (1-3 ml/min) medium containing 96 mM NaCl, 2 mM KCl, 1.8 mM CaCl2, 1 mM MgCl2, and 5 mM HEPES, pH 7.5 (ND96). Drugs were applied either by local perfusion from a […] glass capillary tube fixed at a distance of 0.5 mm from the oocyte, or by switching from a series of gravity fed perfusion lines.
Heterologous expression of GPCRs in Xenopus oocytes has been widely used to determine the identity of signaling pathways activated by agonist stimulation (Gundersen et al., 1983; Takahashi et al., 1987). […]

NPFF receptors = details: spinal cord membranes; read-out: Ki, inhibition of [125I](1DMe)Y8Fa binding; cited from earlier work
rat NPFF1 receptor = rat NPFF1 receptor (Rattus norvegicus, UniProt Q9EP86); assay: [125I]D-Tyr-NPFF radioligand binding, HEK-293 cells expressing rat NPFF1; design: expressed in transfected cells; details: Table 3, read-out: pKi ± SEM, rat NPFF1 (converted)
Description: as §1

human NPFF1 receptor [4] = target: T1, human NPFF1 receptor; assay: Intracellular calcium mobilization, COS-7 cells expressing human NPFF1 and Gq/Gz chimera; format: cell-based
Description: (§3) Alternatively, cells expressing the mammalian receptor DNA are plated in 96-well plates and grown to confluence. Cells are incubated with a cell permeant fluorescent calcium indicator such as, but not restricted to, Fluo-3/AM. After washing with HBS to remove the Fluo-3/AM solution, cells are equilibrated for 20 min. The fluorescence emission due to intracellular calcium mobilization elicited by agonists of the expressed mammalian receptor, is determined with a fluorescence imaging plate reader (FLIPR, Molecular Devices Corporation, Sunnyvale, Calif.).
(§4) The coupling of human NPFF1 and NPFF2 receptors to the activation of intracellular second messenger pathways was studied further in COS-7 cells co-transfected with the Gq/Gz chimera.

human NPFF2 receptor [5] = target: T2, human NPFF2 receptor; assay: Intracellular calcium mobilization, COS-7 cells expressing human NPFF2 and Gq/Gz chimera; format: cell-based
Description: as §3, §4

NPFF1 (SNORF2) = target: T5, NPFF1 (SNORF2) (Rattus norvegicus, UniProt Q9EP86); assay: Voltage-clamp electrophysiology, Xenopus oocytes injected with SNORF2 (NPFF1) and chimeric Gαq/z RNA; format: cell-based; details: 10 μM
T5 construct: linearized plasmids or PCR products containing the complete coding region of the genes; expressed in transfected cells; host or cells: Xenopus laevis oocytes injected with synthetic RNA (T7 transcripts)
Description: as §2
Heterologous expression of GPCRs in Xenopus oocytes has been widely used to determine the identity of signaling pathways activated by agonist stimulation (Gundersen et al., 1983; Takahashi et al., 1987). Activation of the phospholipase C (PLC) pathway is assayed by applying test compound in ND96 solution to oocytes previously injected with mRNA for the mammalian receptor and observing inward currents at a holding potential of −80 mV. […]

| Structure (SMILES) | pKi for rat spinal cord membrane receptor binding, MEAN [1] | Ki (human NPFF1 receptor [2]) [nM] | Ki (human NPFF2 receptor [3]) [nM] | Ki (rat NPFF2 receptor) [nM] | inward current response (NPFF2 (NPFF-like)) | Ki (NPFF receptors) [nM] | Ki (rat NPFF1 receptor) [nM] | % of NPPF Response, NPFF1 (human NPFF1 receptor [4]) [%] | EC50 (human NPFF1 receptor [4]; read-out: pEC50, intracellular calcium mobilization, NPFF1 (converted)) [nM] | % of NPPF Response, NPFF2 (human NPFF2 receptor [5]) [%] | EC50 (human NPFF2 receptor [5]; read-out: pEC50, intracellular calcium mobilization, NPFF2 (converted)) [nM] | inward current response (NPFF1 (SNORF2)) |
| --- | --- | --- | --- | --- | --- | --- | --- | --- | --- | --- | --- | --- |
| CSCC[C@H](NC(=O)[C@@H](N)Cc1ccccc1)C(=O)N[C@@H](CCCNC(=N)N)C(=O)N[C@@H](Cc1ccccc1)C(N)=O [FMRFa] | 8.493 | 0.794 | 3.98 | 10 | No activity | 30 | 2 |  |  |  |  |  |
| CC(C)C[C@H](NC(=O)[C@@H](N)Cc1ccccc1)C(=O)N[C@@H](Cc1ccccc1)C(=O)N[C@@H](CCC(N)=O)C(=O)N1CCC[C@H]1C(=O)N[C@@H](CCC(N)=O)C(=O)N[C@@H](CCCNC(=N)N)C(=O)N[C@@H](Cc1ccccc1)C(N)=O [NPFF] | 9.055 |  |  |  |  | 0.29 |  |  |  |  |  |  |
| N=C(N)NCCC[C@H](NC(=O)[C@H](CCC(N)=O)NC(=O)[C@@H]1CCCN1)C(=O)N[C@@H](Cc1ccccc1)C(N)=O [PQRFa] | 8.541 | 39.8 | 25.1 | 25.1 | activated similar inward currents |  | 25.1 | 93 | 200 | 94 | 100 | elicited responses |
